Assay outcomes (PubChem)
ClpP mod: qHTS Assay for Activators of ClpP | ATP-dependent Clp protease proteolytic subunit (Bacillus subtilis (strain 168)), P80244 | purified B. subtilis ClpP, FRET peptide cleavage, 20 min | Potency, µM (titrated, usually from 57.5 µM), inactives show at the highest dose activity change, negative = active | 1.9% of 340,000 active | AID 651965, 2013; active = well fitted falling curve with a large enough effect; inconclusive = small, poorly fitted or top-dose-only effect; inactive = no such curve, though single readings can be large or run the other way; also: potency is read from the fitted curve at half-maximal effect; the source files actives as falling curves though it sought activators and does not explain the sign; nearly all actives have a fitted effect of over 65% in size
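ClpP 10 microg/mL final, pH 8 Tris/KCl buffer with BSA, glycerol, Tween-20; compound pinned in; FRET-FV substrate; RT 20 min; Ex320/Em430; ΔFRET vs ADEP 5.8 microM, DMSO, no enzyme.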
A549 tox-1: A549 cytotoxicity, counter-screen for Nrf2 inhibitors; 0.16% of 390,000 active; A549 ARE-Fluc cells, CellTiter-Fluor viability, 18-24 h; Potency, µM (highest dose often 46 µM), for the others: top-dose activity change, negative = cytotoxicity, most hits filed as inhibitors; also: potency is read from the fitted curve at half-maximal effect; % is scaled to controls: 0 for no effect and ±100 for the full control effect
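A549 ARE_Fluc cells in 5% FBS OPTI-MEM were exposed to compounds in concentration-response for 18-24 h at 37 deg C. Viability was read by CellTiter-Fluor fluorescence (Ex 405/Em 525) after 30 min, before the luciferase read.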
Nrf2 block: blocks Nrf2 signaling; Potency, µM (doses to about 46 µM), without a hit: top-dose activity change, negative = inhibition, most hits filed as inhibitors; 2.1% of 360,000 active; A549 ARE-Fluc reporter, luciferase luminescence, 18-24 h; also: potency is read from the fitted curve at half-maximal effect; % is scaled to controls: 0 for no effect and ±100 for the full control effect; nearly all actives have a fitted effect of over 60% in size
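A549 ARE_Fluc cells, 5000/well, 5% FBS OPTI-MEM; compounds in dose-response, 18-24 h at 37 °C/5% CO2; CellTiter-Fluor viability read (Ex 405/Em 525), then BugLite luciferase luminescence = Nrf2 activity.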
miR-21 reporter: miR-21 reporter, rising signal; HeLa miR-21 FLuc reporter, luciferase, 48 h; Potency, µM (doses to about 38.3 µM), for inactives: at the highest dose reporter change, positive = more light; 340,000 tested, under 10 active; AID 2288; active = well fitted rising curve with a large enough effect; inconclusive = small, poorly fitted or top-dose-only effect; inactive = no such curve, though single readings can be large or run the other way;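 further: % of control where 0% means no effect; miR-21 action dims this reporter so a rising signal means less miR-21 action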
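Using DMEM plus 10% FBS, HeLa miR-21-FLuc cells are incubated with test compounds (final up to about 40uM) for 48 hours; firefly luciferase signal is then imaged following reagent-mediated lysis.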
Nrf2 activator: activates Nrf2 signaling; AREc32 ARE-luciferase reporter (MCF7-derived line), luminescence, 24 h; Potency, µM (highest dose often 46.1 µM), inactives show top-dose activation, hits mostly activators; 0.31% of 410,000 active; also: potency is read from the fitted curve at half-maximal effect; % of control where 0% means no effect; nearly all actives have a fitted effect of over 65% in size
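Reporter line AREc32 (ARE-Fluc), seeded overnight in OPTI-MEM with 5% FBS; compound pin-transferred, 24 hr at 37 deg C, 5% CO2; luminescent read-out.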
p53 reactivator: re-activators of mutant p53 | H1299 p53-A138V BP100-luciferase reporter, luminescence, 24 h | Potency, µM (series often up to 92.2 µM), for inactives: top-dose activity change, positive = activation, hits mostly activators | 0.063% of 320,000 active | AID 504706; also: potency is read from the fitted curve at half-maximal effect; % of control where 0% means no effect; nearly all actives have a fitted effect of over 45% in size
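H1299 (p53-null), stable ts p53-A138V + BP100-Luc; 1000 cells/well, Opti-MEM/10% FBS; cpd 4 pt, 1:5; 24 h, 37 deg C, 5% CO2; detection reagent 10 min RT; luminescence.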
FLuc enzyme inh: counter-screen for Nrf2 inhibitors: firefly luciferase enzyme inhibition | shares compounds with Nrf2 block | purified firefly luciferase, luminescence inhibition | Potency, µM (highest dose often 57.5 µM), inactives show at the highest dose activity change, negative = inhibition, usual class: inhibitors | 4% of 1,400 active | AID 720522; also: potency is read from the fitted curve at half-maximal effect; % is scaled to controls: 0 for no effect and ±100 for the full control effect; nearly all actives have a fitted effect of over 65% in size
A549 tox-2: A549 cytotoxicity, Nrf2 inhibitor counterscreen; 2% of 1,400 active; A549 ARE-Fluc cells, cytotoxicity counterscreen; shares compounds with Nrf2 block; Potency, µM (titrated, usually from 46.1 µM), without a hit: at the highest dose activity change, negative = cytotoxicity, hits mostly inhibitors;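 also: potency is read from the fitted curve at half-maximal effect; cells exposed to compounds for 18 to 24 hours; % is scaled to controls: 0 for no effect and ±100 for the full control effect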
ARE-Fluc inh: reduces Nrf2 ARE reporter signal in A549 cells; 74% of 1,400 active; AID 720524; A549 ARE-firefly luciferase reporter, luminescence; Potency, µM (series often up to 46.1 µM), for the others: at the highest dose activity change, negative = inhibition, actives largely listed as inhibitors; shares compounds with Nrf2 block; also: potency is read from the fitted curve at half-maximal effect; % is scaled to controls: 0 for no effect and ±100 for the full control effect; nearly all actives have a fitted effect of over 65% in size
Numbers without * were called inactive; ? = inconclusive; · = no result given; [ ] = another dose, or the depositor's remark. Hits are enriched below; roughly 3.7% of the tested compounds scored in any of these assays. Unless noted, calls follow the shape of the dose curve; as a rule, active = well fitted curve in the direction sought with a large enough effect; inconclusive = small, poorly fitted or top-dose-only effect, or another doubt; inactive = no such curve, though single readings can be large; an effect the other way counts as inactive or inconclusive.

Second line of a record: A549 tox-1 | Nrf2 block | miR-21 reporter | Nrf2 activator | ClpP mod | A549 tox-2 | FLuc enzyme inh | p53 reactivator | ARE-Fluc inh
1	COc1cccc(S(=O)(=O)Nc2ccc(C(=O)Nc3ccncc3)cc2)c1
    -3.4% | ? | 4.2% | 2.1% | -8.5% | · | · | 0.9% | ·
2	Cn1c(=O)[nH]c(=O)c2c1nc(NC1CCCC1)n2Cc1ccccc1
    -1.2% | -11.1% | -6.5% | 0.4% | 1.0% | · | · | · | ·
3	Nc1cc[n+](CC(=O)c2ccc3c(c2)OCCO3)cc1
    ? | 2.06µM* | 19.9% | -0.9% | -8.2% | ? | -3.7% | -9.8% | 5.8µM*
4	O=C(C[n+]1ccc(C(=O)NCc2ccccc2)cc1)c1ccc2c(c1)OCCO2
    1.8% | -18.0% | -1.1% | 0.4% | -4.6% | · | · | -3.7% | ·
5	COc1ccc(OC)c(/C=C/c2ccc3ccccc3[n+]2C)c1
    · | · | · | · | 0.6% | -33.2% | -2.1% | · | 7.31µM*
6	C[n+]1c(/C=C/c2ccc(F)cc2)ccc2ccccc21
    · | · | · | · | -21.7% | -21.5% | ? | · | 8.2µM*
7	C[n+]1c(/C=C/c2ccc(O)cc2)ccc2ccccc21
    -29.5% | 2.1% | -16.0% | 20.0% | 0.6% | · | · | ? | ·
8	CCOc1ccc(C(=O)Nc2ccc3nc(SCC(=O)N(C)c4ccccc4)sc3c2)cc1
    -8.9% | 5.8µM* | ? | -0.3% | 4.0% | -11.5% | ? | · | 8.2µM*
9	CCOc1ccc(C(=O)Nc2ccc3nc(SCC(=O)N4CCCC4)sc3c2)cc1
    2.3% | -19.6% | 6.0% | -0.5% | -4.4% | · | · | · | ·
10	COCCCNC(=O)c1ccc(Cn2c(SCc3ccc(F)cc3)nc3cccnc32)cc1
    1.6% | ? | 3.1% | 3.6% | 5.0% | · | · | · | ·
11	Cc1cc(C)n(S(=O)(=O)/C=C/c2ccccc2)n1
    ? | 9.2µM* | ? | 3.16µM* | 1.0% | -15.3% | 1.9% | 13.9% | -8.1%
12	Cc1nc2ccc(S(=O)(=O)c3ccc4nc(C)[nH]c4c3)cc2[nH]1
    -4.3% | · | 0.1% | 0.0% | -5.1% | · | · | -3.9% | ·
13	Cc1nc2ccc(NS(=O)(=O)c3ccc(F)c(C)c3)cc2[nH]1
    -1.9% | 8.2µM* | 18.4% | -0.7% | 1.0% | -3.4% | -1.3% | -1.0% | 5.8µM*
14	CNc1cccnc1C=NNC(N)=S
    ? | 0.581µM* | · | 0.4% | -22.1% | -13.5% | -23.4% | · | 1.46µM*
15	CC1CCCN(S(=O)(=O)c2cc3c(cc2Cl)NC(=O)CO3)C1 (stereo not given)
    -0.8% | -15.5% | -5.6% | -1.0% | -0.9% | · | · | · | ·
16	CCc1c(C)nc2ncnn2c1NCCc1ccc(Cl)cc1
    -11.1% | 7.31µM* | 21.4% | 2.6% | · | -11.7% | 1.0% | -5.3% | 4.61µM*
17	Cc1ccc(-c2nnc(SCC(=O)NC3CCCC3)nc2-c2ccc(C)cc2)cc1
    ? | 1.84µM* | 6.8% | 1.0% | 0.1% | -9.3% | -3.2% | · | -13.5%
18	O=C(NCc1ccco1)c1ccc2c(c1)N(Cc1ccc(Cl)cc1)C(=O)c1ccccc1S2(=O)=O
    -22.1% | ? | 4.7% | 4.3% | -17.4% | · | · | · | ·
19	C1=C2C[N+]3(CCCC3)CC2Cc2ccc3ccccc3c21 (stereo not given)
    -17.2% | 2.06µM* | 4.4% | -1.5% | -6.9% | -13.2% | -1.3% | -0.4% | 7.31µM*
20	N=c1c2c(n(Cc3ccc(F)cc3)c3c1CCC3)CCC2
    2.0%[1.84 µM] | ? | ? | -0.8% | -4.7% | · | · | -2.0% | ·
21	CCCCCCCn1c2c(c(=N)c3c1CCC3)CCCC2
    ? | 0.517µM* | ? | 9.2% | · | -27.4% | 1.8% | -11.3% | 1.84µM*
22	CCCCCCCCCn1c2c(c(=N)c3c1CCC3)CCC2
    1.1% | ? | ? | -4.1% | -0.5% | · | · | -29.2% | ·
23	CCCCn1c2c(c(=N)c3c1CCC3)CCC2
    -14.5% | 2.59µM* | ? | -1.1% | -2.0% | -10.6% | -1.0% | 4.3% | 6.51µM*
24	C=C(c1nc2ccccc2s1)C1Cc2cccc3c2N(CCC3)C1 (stereo not given)
    · | · | · | · | -0.2% | -71.6% | 12µM* | · | 2.59µM*
25	CC(=O)c1cn(CCOc2ccccc2C)c2ccccc12
    1.3% | 4.61µM* | 24.4% | 3.2% | -2.3% | 4.5% | -1.6% | 8.4% | 6.51µM*
26	O=C(C[n+]1cccc2ccccc21)c1ccc(Cl)cc1
    8.9% | 32.2% | -20.9% | 1.8% | -20.0% | · | · | -4.8% | ·
27	Clc1cccc(Cl)c1C[n+]1cccc2ccccc21
    -13.5% | 4.11µM* | · | -1.0% | -0.2% | 3.9% | 1.3% | · | ?
28	Cn1cccc1C(=O)NC(=O)COC(=O)CNC(=O)c1ccc(Cl)cc1Cl
    1.8% | 2.59µM* | 0.6% | -1.1% | · | 2.6% | ? | 1.4% | 7.31µM*
29	Cc1cc(=O)n(CC(=O)N2CCN(c3ccccc3F)CC2)c2c1c(C)nn2C
    -6.4% | 8.2µM* | 20.6% | 0.5% | -19.9% | -6.8% | 1.2% | · | ?
30	CC(C)(C)OC(=O)N1CCCC1C(=O)NC1COC2CC(n3cc(F)c(=O)[nH]c3=O)OC12 (stereo not given)
    -1.9% | 19.5% | · | · | · | · | · | · | ·

3 successive records out of the list so far, for reference:
Second line of a record: A549 tox-1 | Nrf2 block | miR-21 reporter | Nrf2 activator | ClpP mod | A549 tox-2 | FLuc enzyme inh | p53 reactivator | ARE-Fluc inh
28	Cn1cccc1C(=O)NC(=O)COC(=O)CNC(=O)c1ccc(Cl)cc1Cl
    1.8% | 2.59µM* | 0.6% | -1.1% | · | 2.6% | ? | 1.4% | 7.31µM*
29	Cc1cc(=O)n(CC(=O)N2CCN(c3ccccc3F)CC2)c2c1c(C)nn2C
    -6.4% | 8.2µM* | 20.6% | 0.5% | -19.9% | -6.8% | 1.2% | · | ?
30	CC(C)(C)OC(=O)N1CCCC1C(=O)NC1COC2CC(n3cc(F)c(=O)[nH]c3=O)OC12 (stereo not given)
    -1.9% | 19.5% | · | · | · | · | · | · | ·

Next part:
Second line of a record: A549 tox-1 | Nrf2 block | miR-21 reporter | Nrf2 activator | ClpP mod | A549 tox-2 | FLuc enzyme inh | p53 reactivator | ARE-Fluc inh
31	Cc1ccccc1NC1=C(Cl)C(=O)OC1OC(=O)c1ccccc1C (stereo not given)
    ? | 1.64µM* | 8.2% | ? | · | -2.1% | -3.7% | -1.7% | ?
32	Cc1ccc(NC2=C(Cl)C(=O)OC2OC(=O)c2ccccc2)c(C)c1 (stereo not given)
    -1.5% | 3.3% | 0.4% | ? | · | · | · | 2.4% | ·
33	CC1=C2C3OC(=O)C(C)C3CCC2(C)C=C(Cl)C1=O (stereo not given)
    · | · | · | 0.2% | 3.7% | · | · | · | ·
34	COc1cc(C(=O)N2Cc3cc4ccccc4nc3C2C)cc(OC)c1OC (stereo not given)
    · | · | · | -0.1% | -0.3% | · | · | · | ·
35	Cc1ccc(F)cc1NC(=O)N1CCN(c2ccnc3cc(Cl)ccc23)CC1
    -16.9% | 9.2µM* | 9.7% | -0.9% | -3.5% | -3.0% | -1.4% | -10.4% | 9.2µM*
36	CC(C)(C)C(C(=O)NC1CCCC1)N1CCN(c2ncccc2C#N)CC1 (stereo not given)
    · | · | · | · | -20.0% | · | · | · | ·
